By Ki is commonly meant a dissociation constant, usually derived from enzyme kinetics or from competition with a known ligand. Usually EC50 stands for the midpoint of the concentration-response curve.

Protein sequences, listed by entry. Tags and fused reporters are not part of them. Lines headed by an entry give the natural chain unless they say otherwise; changes in a name come on top.
UniProt P50406, whole entry: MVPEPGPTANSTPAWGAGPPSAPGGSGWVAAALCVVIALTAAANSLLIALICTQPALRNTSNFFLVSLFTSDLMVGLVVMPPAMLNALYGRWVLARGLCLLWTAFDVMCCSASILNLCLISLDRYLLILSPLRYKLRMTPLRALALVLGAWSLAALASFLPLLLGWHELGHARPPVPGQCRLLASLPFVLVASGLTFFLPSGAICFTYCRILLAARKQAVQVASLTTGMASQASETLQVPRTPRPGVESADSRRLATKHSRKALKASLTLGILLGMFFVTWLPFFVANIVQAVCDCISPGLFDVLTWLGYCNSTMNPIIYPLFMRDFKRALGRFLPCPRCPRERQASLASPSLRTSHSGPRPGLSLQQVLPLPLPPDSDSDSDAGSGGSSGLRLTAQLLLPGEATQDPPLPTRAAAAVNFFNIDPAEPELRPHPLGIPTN
UniProt P08908, whole entry: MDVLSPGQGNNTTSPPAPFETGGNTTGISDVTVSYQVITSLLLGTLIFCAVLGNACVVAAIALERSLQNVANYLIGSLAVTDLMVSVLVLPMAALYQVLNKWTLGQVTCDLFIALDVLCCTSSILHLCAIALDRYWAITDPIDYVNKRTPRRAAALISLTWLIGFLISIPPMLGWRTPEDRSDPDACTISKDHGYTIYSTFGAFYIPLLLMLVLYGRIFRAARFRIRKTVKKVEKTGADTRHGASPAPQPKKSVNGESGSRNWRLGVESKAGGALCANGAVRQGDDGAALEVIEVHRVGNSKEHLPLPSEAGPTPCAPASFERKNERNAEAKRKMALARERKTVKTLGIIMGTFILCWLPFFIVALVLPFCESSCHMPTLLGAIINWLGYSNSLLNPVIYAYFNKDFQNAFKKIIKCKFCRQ
UniProt P28221: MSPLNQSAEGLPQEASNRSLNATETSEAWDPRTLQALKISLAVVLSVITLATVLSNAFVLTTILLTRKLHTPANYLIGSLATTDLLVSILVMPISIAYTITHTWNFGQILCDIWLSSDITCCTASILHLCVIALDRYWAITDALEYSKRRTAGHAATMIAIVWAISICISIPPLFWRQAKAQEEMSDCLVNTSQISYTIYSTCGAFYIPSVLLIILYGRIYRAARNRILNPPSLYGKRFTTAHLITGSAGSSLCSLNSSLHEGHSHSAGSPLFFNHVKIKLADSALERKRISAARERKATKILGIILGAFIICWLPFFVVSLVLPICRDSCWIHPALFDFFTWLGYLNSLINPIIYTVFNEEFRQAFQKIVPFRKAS
UniProt P28223, whole entry: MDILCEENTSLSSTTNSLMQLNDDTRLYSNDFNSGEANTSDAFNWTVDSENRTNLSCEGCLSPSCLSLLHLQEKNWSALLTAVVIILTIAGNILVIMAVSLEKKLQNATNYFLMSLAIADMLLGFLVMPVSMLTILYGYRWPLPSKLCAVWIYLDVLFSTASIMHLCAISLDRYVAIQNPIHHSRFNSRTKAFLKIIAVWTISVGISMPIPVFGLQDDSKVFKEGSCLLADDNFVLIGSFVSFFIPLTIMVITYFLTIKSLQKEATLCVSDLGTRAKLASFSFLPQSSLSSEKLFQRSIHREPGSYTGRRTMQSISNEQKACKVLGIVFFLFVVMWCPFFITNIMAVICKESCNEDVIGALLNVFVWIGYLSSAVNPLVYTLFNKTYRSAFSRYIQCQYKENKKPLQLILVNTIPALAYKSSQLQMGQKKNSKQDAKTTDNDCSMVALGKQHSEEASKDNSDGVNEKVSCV
UniProt P28335: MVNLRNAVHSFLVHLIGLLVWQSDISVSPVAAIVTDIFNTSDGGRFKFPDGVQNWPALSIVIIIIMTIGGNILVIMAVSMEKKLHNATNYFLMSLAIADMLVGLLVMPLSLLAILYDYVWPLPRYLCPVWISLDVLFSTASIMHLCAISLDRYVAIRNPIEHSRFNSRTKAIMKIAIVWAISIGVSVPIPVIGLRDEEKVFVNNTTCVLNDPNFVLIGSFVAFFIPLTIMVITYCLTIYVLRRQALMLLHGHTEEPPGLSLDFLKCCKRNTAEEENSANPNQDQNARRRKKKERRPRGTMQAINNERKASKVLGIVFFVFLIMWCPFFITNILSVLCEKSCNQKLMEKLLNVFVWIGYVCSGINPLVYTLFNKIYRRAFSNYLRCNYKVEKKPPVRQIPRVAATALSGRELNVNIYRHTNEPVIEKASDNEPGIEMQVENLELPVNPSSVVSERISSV

Values joined by “and” are separate entries in the source; they are usually repeats but may differ in a detail not shown here. Identical values can stand only once.

The values below come from BindingDB's records for PubMed 20126400 (University of Oklahoma, 2010).

The target of test [1] is 5-hydroxytryptamine receptor 6 (Homo sapiens, UniProt P50406). As to the kind of experiment: Ray2010 Assay 74.
The target of test [2] is 5-hydroxytryptamine receptor 1A (Homo sapiens, UniProt P08908). Description: Ray2010 Assay 74.
Test [3] addresses 5-hydroxytryptamine receptor 1D (Homo sapiens, UniProt P28221). Description: Ray2010 Assay 74.
Test [4] addresses T1, 5-hydroxytryptamine receptor 2A (Homo sapiens, UniProt P28223).
Test [5] concerns the target T1, 5-hydroxytryptamine receptor 2A. As to the kind of experiment: Ray2010 Assay 74.
In test [6] the target is T2, 5-hydroxytryptamine receptor 2C (Homo sapiens, UniProt P28335).
The target of test [7] is T2, 5-hydroxytryptamine receptor 2C. Description: Ray2010 Assay 74.

`COc1ccc2[nH]cc(CCN(C)C)c2c1` [3-(2-DIMETHYLAMINOETHYL)-5-METHOXYINDOLE]: the Ki in test [1] was 35.5 nM; in test [2], 1.9 nM; in test [3], 6.3 nM.
In test [4], `COc1ccc2[nH]cc(CCN(C(C)C)C(C)C)c2c1` [5-meo-dipt] gave an EC50 of 215 nM. The Ki in test [5] was more than 10000 nM.
The compound `CN[C@@H](C)Cc1ccc2c(c1)OCO2` [S-(+)-MDMA] gave an EC50 in test [6] of 121 nM.
On to `CNC(C)Cc1ccc2c(c1)OCO2` (stereo not drawn) [mdma], for which the concentration giving a half-maximal response (EC50) in test [6] was 831 nM and 4300 nM. This compound also registered an inhibitory constant (Ki) in test [7] of more than 10000 nM.
